Patent publication US12187728B2 (Raze Therapeutics, Inc., priority 2015, dated 2025)
pIC50: −log10 of the molar value.

Protein sequences, listed by entry. Tags and fused reporters are not part of them. Residues count along the entry.
UniProt P13995, 36-350 limits assumed: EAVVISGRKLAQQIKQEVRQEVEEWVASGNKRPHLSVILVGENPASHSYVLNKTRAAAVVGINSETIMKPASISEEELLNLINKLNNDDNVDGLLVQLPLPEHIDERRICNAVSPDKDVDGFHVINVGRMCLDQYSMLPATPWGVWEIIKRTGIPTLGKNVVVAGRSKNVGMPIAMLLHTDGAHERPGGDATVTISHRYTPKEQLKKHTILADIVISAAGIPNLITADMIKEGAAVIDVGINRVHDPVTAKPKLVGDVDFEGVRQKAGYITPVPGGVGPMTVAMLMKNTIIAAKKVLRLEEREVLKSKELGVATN

Target: Human MTHFD2 (Homo sapiens, UniProt P13995)
Test: MTHFD2 Activity Assay (dehydrogenase activity, diaphorase/resazurin coupled fluorescence)
Format: biochemical
Details: read-out: Average MTHFD2 Activity

| Compound | pIC50 |
| --- | --- |
| Cn1c(NC2CCC(O)C2)nc2c1c(=O)n(Cc1ccc(Cl)c(Cl)c1)c(=O)n2C (single isomer, unassigned) | 6.00 to 8.00 |

Same assay, conditions: read-out: Average MTHFD2 Activity; inhibitory activity (IC50 and/or binding constant); 0.2 nM MTHFD2, 11 concentrations

| Compound | pIC50 |
| --- | --- |
| Cn1ccc2c(Cl)c(Cn3c(=O)c4c(nc(Nc5ccncc5)n4C)n(C)c3=O)ccc21 | 6.00 to 8.00 |
| Cn1c(Nc2ccncc2)nc2c1c(=O)n(Cc1ccc3[nH]ccc3c1Cl)c(=O)n2C | 5.30 to 6.00 |
| COC(=O)C(C)(C)c1nc2c(c(=O)n(Cc3cc4c(Cl)cccc4[nH]3)c(=O)n2C)n1C | 5.30 to 6.00 |
| Cn1c(N2CCCC2)nc2c1c(=O)n(Cc1cccc(Cl)c1)c(=O)n2C | < 5.00 |
| Cn1c(N2CCCC2)nc2c1c(=O)n(Cc1ccc(Cl)cc1)c(=O)n2C | < 5.00 |
